The list is not random: actives were taken first. Their share in the collection is about 1.5%.
RAD54 branch: inhibitors of human RAD54 branch migration, primary screen, biochemical, fluorescence, single point; 0.14% of 360,000 active; RAD54 Holliday junction branch migration, FAM/BHQ fluorescence; DNA repair and recombination protein RAD54-like (Homo sapiens), Q92698; inhibition, % at 10.4 µM;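 active = mean normalized replicate activity at least 40 and at least half of replicates scoring 40 or more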;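 note: 0% = median of neutral control wells and 100% = median of positive control wells; inhibitors cause a drop in the FAM fluorescence signal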
Yeast UUG start: modulators of start codon recognition fidelity in yeast. S. cerevisiae UUG-firefly luciferase reporter, luminescence/redox ratio. activity score, % at 18.7 µM. 0.13% of 350,000 active. AID 602363;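 active = replicate mean at a twofold rise or more, about +100% in these data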;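 also: firefly luciferase made from a UUG start codon reports start codon fidelity; reporter light over untreated wells divided by growth signal over untreated wells; some hits fall short of that in this replicate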
Casp6 inh: human caspase-6 inhibitors, primary screen, biochemical, VEID-R110 fluorescence, single point, set 2 | P55212 | purified caspase-6, Z-VEID-R110 cleavage fluorescence | inhibition, % at 12.5 µM | 0.53% of 350,000 active | AID 686996, 2013;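 active = mean inhibition across replicates at least about 35%, with every replicate also reaching that limit, limit read from the data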;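 note: 0% = median of neutral control wells and 100% = no fluorescence left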
RAD52 anneal inh: RAD52 DNA annealing inhibitors, primary screen, biochemical, FRET, single point, set 2; recombinant RAD52 DNA annealing, FRET fluorescence; inhibition, % at 18.7 µM; 0.46% of 360,000 active;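 active = every replicate showing at least 50% inhibition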
GSIS activator: GLuc luminescence reporter in INS-1E cells, primary screen for activators of glucose-dependent secretion of insulin; INS-1E GLuc reporter insulin secretion, 2-3 h; activation, % at 16.6 µM; 0.61% of 370,000 active; AID 743287, 2014;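 active = lowest replicate activation of at least 40%, so every replicate reaches that level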;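 note: 0% = median of neutral control wells and 100% = median of IBMX positive control wells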
PglD inh: C. jejuni PglD acetyltransferase inhibitors, primary screen, biochemical, DTNB colorimetric, single point; purified PglD enzyme, DTNB colorimetric CoA detection; inhibition, % at 12.5 µM; 0.098% of 360,000 active; in the data active = inhibition above about 16%, passing the limit was not always enough
Starred values were filed as active, the others as inactive; · = no result given; ! = not active in a repeat.

SMILES	RAD54 branch	Yeast UUG start	Casp6 inh	RAD52 anneal inh	GSIS activator	PglD inh
O=C(CN1C(=O)CCC1=O)Nc1cccc2c1C(=O)NC2=O	·	·	5	-4	41*	·
O=C1Cc2cc(S(=O)(=O)N3CCNCC3)ccc2N1	·	·	-27	77*	22	·
Cc1ccc(-c2ccc([C@@H]3[C@@H](CO)N4CCCCN(C(=O)Nc5ccccc5)C[C@@H]34)cc2)cc1	-6	-9	-4	-11	-22	0
Nc1nc2ccc(C(=O)NC3CCCCC3)cc2s1	6	-26	·	·	·	2
COc1ccc(CO/N=C/c2c(C)[nH]c(=O)[nH]c2=O)cc1	2	-14	·	·	44*	0
Cc1cc(C)n2c(SCC(=O)Nc3cc(C)on3)nnc2n1	1	-13	·	·	·	-3
CCc1nnc(NC(=O)CSc2nnc3nc(C)cc(C)n23)s1	4	-22	0	-9	43*	2
C=CCNC(=S)N1CCC(C(=O)c2ccc(Cl)cc2)CC1	2	-37	64*	-7	·	7
Cc1cccc(NC(=O)C2CCCN2C(=O)OCC(C)C)c1 (configuration not stated)	-6	2	·	·	·	-2
CC(C)COC(=O)N1C[C@H](O)C[C@H]1C(=O)Nc1ccc(Cl)cc1	-4	-16	-2	-15	120*	-3
C#CCOCCOCCOCCNc1nc(N2CCN(C(=O)[C@H]([C@@H](C)CC)n3cc(CCCCN)nn3)CC2)nc(N2CCN(C(=O)[C@H](C)n3cc(CCCN=C(N)N)nn3)CC2)n1	-27	-21	-52	40	25	1
COc1ccc(CCC(=O)NCc2cnn(C)c2)cc1	·	·	·	·	20	·
COc1cccc(NC(=O)Nc2ccc3c(c2)C(=O)N(C)C[C@H](OC)[C@@H](C)CN(C)[C@@H](C)CO3)c1	2	·	2	79*	0	-2
CO[C@H]1CN(C)C(=O)c2cc(NC(=O)Nc3ccccc3)ccc2OC[C@@H](C)N(C(=O)Nc2c(C)noc2C)C[C@H]1C	-2	12	36*	7	16	-3
CCCN1C[C@@H](C)[C@@H](OC)CN(C)C(=O)c2ccc(NC(=O)Nc3cccc(OC)c3)cc2OC[C@@H]1C	-8	·	1	68*	-5	3
COc1cccc(NC(=O)Nc2ccc3c(c2)C(=O)N(C)C[C@@H](OC)[C@@H](C)CN(CC2CC2)[C@@H](C)CO3)c1	-12	·	-2	70*	5	0
COc1cccc(C(=O)Nc2ccc3c(c2)C(=O)N(C)C[C@H](OC)[C@H](C)CN(C)[C@H](C)CO3)c1	4	-11	·	4	-1	-1
CCOC(=O)c1cnc(-n2cc(C)cn2)nc1Nc1ccccc1OCC	-6	-17	·	·	·	-6
CC1CCN(C(=O)CS(=O)(=O)Cc2ccccc2)CC1	-6	-6	5	-13	4	6
CCCN1C[C@@H](C)[C@@H](OC)CN(C)C(=O)c2ccc(NC(=O)c3cccc(F)c3)cc2OC[C@H]1C	4	3	-3	-9	47*!	0
CCCN1C[C@H](C)[C@H](OC)CN(C)C(=O)c2ccc(NC(=O)c3cccc(F)c3)cc2OC[C@@H]1C	3	-2	-3	-5	1	3
CC(C)Oc1cc2ccccc2cc1CNC[C@H]1O[C@@H](n2cnc3c(N)ncnc32)[C@H](O)[C@@H]1O	4	-1	0	1	5	-1
O=c1[nH]c(C2C3CC4CC(C3)CC2C4)nc2ccccc12 (configuration not stated)	·	·	1	-2	2	·
Cc1cccn2c(=O)c3cc(C#N)c(=NC(=O)c4ccco4)n(Cc4ccco4)c3nc12	13	-6	67*	-28	6	0
Cc1cccn2c(=O)c3cc(C#N)c(=NC(=O)c4ccccc4)n(Cc4ccco4)c3nc12	-11	-1	13	-23	12	4
CCN1CCN(C(=O)c2ccc(CS(=O)(=O)Cc3ccccc3Cl)o2)CC1	-6	-7	63*	-15	·	3
CCN1CCN(C(=O)c2ccc(CS(=O)(=O)Cc3ccccc3C)o2)CC1	0	-16	-1	-5	6	-5
CC(C)C#Cc1ccc2c(c1)O[C@@H](CN(C)C(=O)Cc1ccccn1)[C@@H](C)CN([C@@H](C)CO)S2(=O)=O	-3	14	-5	-14	3	0
CCc1nc2c(OCc3ccc(Cl)cc3)cccn2c1N(C)C(=O)c1cccs1	-14	-16	2	-26	-19	-2
Nc1ccc(Sc2ccccc2Cl)nc1	·	·	43*	-14	-13	·
O=[N+]([O-])c1ccc(Sc2ccccc2Cl)nc1	-5	-5	·	·	·	-8
O=C(CCC1CCCCC1)NNC(=O)NC12CC3CC(CC(C3)C1)C2	·	·	·	·	-10	·
COc1ccc(CN(C)C[C@@H]2OCCCC[C@H](C)Oc3ccc(NS(=O)(=O)c4c(C)noc4C)cc3C(=O)N([C@H](C)CO)C[C@@H]2C)cc1	3	20	·	·	0	0
Fc1cccc(CCN2CCNC[C@@H]2Cc2ccccc2)c1	-9	-6	-1	-6	·	-4
FC(F)(F)c1cc(CCN2CCNC[C@@H]2Cc2ccccc2)cc(C(F)(F)F)c1	6	-2	18	43	191*	-7
CCOC(=O)c1ccc2nc(C)c3c(c2c1)OC(C)C3 (configuration not stated)	-1	-22	·	·	·	1
Cc1ccc(S(=O)(=O)C(NC(=O)c2ccccc2)=C(Cl)Cl)cc1	-4	-9	·	·	·	1
O=C(NC(=C(Cl)Cl)S(=O)(=O)c1ccc(Cl)cc1)c1ccccc1	15	-15	39*	-12	4	-4
C/C=C/c1ccc2c(c1)O[C@@H](CN(C)C(=O)Cc1cccnc1)[C@@H](C)CN([C@H](C)CO)S2(=O)=O	-1	·	2	-8	20	0
CNC(=O)c1ccccc1NC(=O)C1CC(=O)N(C(C)C)C1 (configuration not stated)	3	-9	66*	-25	-2	1
CC(C)NC(=O)c1ccccc1NC(=O)C1CC(=O)N(C(C)C)C1 (configuration not stated)	0	0	1	-22	-6	5
C[C@H]1CN([C@@H](C)CO)C(=O)c2cccc(NS(C)(=O)=O)c2O[C@H]1CN(C)Cc1ccccc1	-4	-10	1	-3	2	0
Cc1ccc(S(=O)(=O)N2CCCCC2)cc1NC(=O)c1cc2ccccc2o1	4	-15	-1	-21	-10	2
CCN1CCN(c2ccc(S(=O)(=O)N3CCCCC3)cc2NC(=O)c2cc3ccccc3o2)CC1	1	-2	8	-9	46*	-1

As a working copy, part of the list above:
SMILES	RAD54 branch	Yeast UUG start	Casp6 inh	RAD52 anneal inh	GSIS activator	PglD inh
C/C=C/c1ccc2c(c1)O[C@@H](CN(C)C(=O)Cc1cccnc1)[C@@H](C)CN([C@H](C)CO)S2(=O)=O	-1	·	2	-8	20	0
CNC(=O)c1ccccc1NC(=O)C1CC(=O)N(C(C)C)C1 (configuration not stated)	3	-9	66*	-25	-2	1
CC(C)NC(=O)c1ccccc1NC(=O)C1CC(=O)N(C(C)C)C1 (configuration not stated)	0	0	1	-22	-6	5
C[C@H]1CN([C@@H](C)CO)C(=O)c2cccc(NS(C)(=O)=O)c2O[C@H]1CN(C)Cc1ccccc1	-4	-10	1	-3	2	0
Cc1ccc(S(=O)(=O)N2CCCCC2)cc1NC(=O)c1cc2ccccc2o1	4	-15	-1	-21	-10	2
CCN1CCN(c2ccc(S(=O)(=O)N3CCCCC3)cc2NC(=O)c2cc3ccccc3o2)CC1	1	-2	8	-9	46*	-1
